The list is not random: actives were taken first. Their share in the collection is about 0.53%.
MmCpn inh: M. maripaludis TRiC chaperonin inhibition; purified Mm-Cpn ATPase, ADP Transcreener TR-FRET; Potency, µM (doses to about 76.9 µM), for inactives: at the highest dose activity, negative = inhibition, usual class: inhibitors; 330,000 compounds, 0.031% hits; AID 504842; active = well fitted inhibition curve with a large enough effect; inconclusive = small, poorly fitted or top-dose-only effect; note: potency is the fitted concentration of half-maximal effect; % is set by controls: 0 for no effect and ±100 for the full control effect; nearly all actives have a fitted effect of over 80% in size
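Measured: ADP formation by purified Mm-CPN. Conditions: 25 nM protein, 10 uM ATP, Tris pH 7.4 with Mg2+, K+ and DTT, 37°C for 30 min. Detection: Transcreener HTRF after 30 min at room temperature.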
Giardia killer: Giardia lamblia killing; 340,000 compounds, 0.15% hits; AID 540267; activity change, % at 7.66 µM, hits read low; Giardia lamblia trophozoite viability; in the data active = activity change below about -80%; inconclusive = between about -30% and that limit;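 note: parasites exposed to compound for two days anaerobically before the ATP read; % is set by controls: 0 for no effect and ±100 for the full control effect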
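Killing of trophozoites was scored by loss of ATP luminescence after a 48 hrs anaerobic exposure to compounds at 37 deg C, using 100 cells per well.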
CCT chaperon mod: cytosolic chaperonin activity modulation | purified chaperonin ATPase assay, HTRF ADP detection, 30 min | activity change, % (test concentration not listed), hits read low | 360,000 compounds, 0.3% hits | AID 651819; in the data active = activity change below about -30%; note: % is set by controls: 0 for no effect and ±100 for the full control effect
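TRiC (40 or 20 nM final, by batch activity) in 30 mM Tris pH 7.4, 100 mM KCl, 5 mM MgCl2, 1 mM DTT was treated with compound at 76 uM single dose, then 10 uM ATP, 30 min at 37 °C. ADP was read by HTRF Transcreener.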
Rango release inh: prevents RanGTP from dissociating the Rango-importin beta complex; AID 540253; O95149+P62826; Biochemical FRET Rango-importin beta, RanGTP-induced dissociation; Potency, µM (highest dose often 46.1 µM), for the others: top-dose activity change, negative = inhibition; 340,000 compounds, 0.071% hits; note: potency is the fitted concentration of half-maximal effect; % of control where 0% means no effect; nearly all actives have a fitted effect of over 45% in size
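Compounds sat 5 min at room temperature with 0.1 uM Rango biosensor plus 0.25 uM importin beta, then FRET pre-read. RanGTP-RCC1 (0.6 uM Ran, 2mM GTP, 0.2 uM RCC1) added for 45 min, and the CFP/YFP post-read measured blocked complex dissociation.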
Rango complex inh: prevents formation of the Rango-importin beta complex; Q14974; Rango CFP/YFP FRET sensor + importin beta, 45 min; Potency, µM (top dose mostly 92.2 µM), inactives show at the highest dose inhibition of complex formation; 340,000 compounds, 0.031% hits;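 note: potency is the fitted concentration of half-maximal effect; 0% = DMSO wells and 100% = buffer wells lacking importin beta; nearly all actives have a fitted effect of over 15% in size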
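FRET biosensor Rango (snurportin 1 IBB between N-terminal EYFP and C-terminal Cerulean), 50 nM in PBS/1 mM DTT/0.02% Tween-20/0.1% BSA, preincubated 5 min RT with compound; 0.125 microM importin beta added, 45 min RT, CFP/YFP FRET ratio read.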
Active calls of the source: *; u = inconclusive; x = no result; [ ] = remark or other dose. Unless noted, calls come from the whole dose curve.

SMILES	MmCpn inh	Giardia killer	CCT chaperon mod	Rango release inh	Rango complex inh
O=C(Nc1ncccn1)c1ccc([N+](=O)[O-])o1	0.3%	-92.8*	1.0	-43.2%	u
Cc1ccnc(NC(=O)c2ccc([N+](=O)[O-])o2)c1	-0.9%	u	0.5	4.4%	0.0%
O=C(Nc1ccccc1C(=O)NC1CC1)c1ccc([N+](=O)[O-])o1	-16.3%	u	1.8	-7.2%	0.3%
Cn1nc(C(=O)OCc2ccc(F)cc2)c2ccccc2c1=O	0.2%	-10.7	-37.4*	-23.3%	5.1%
Cc1ccc(COC(=O)c2nn(C)c(=O)c3ccccc23)cc1	2.3%	-12.2	-5.9	1.9%	-1.9%
COC(=O)C1CC1[C@H](NC(=O)c1cccnc1)c1ccccc1 (some centres not stated)	x	-12.6	x	x	x
Cc1ccc(S(=O)(=O)N2CCN(c3nc(-c4cnccn4)nc4ccccc34)CC2)cc1	x	-10.2	x	x	x
c1ccc(Nc2nc3ccccc3n3nnnc23)cc1	0.2%	-16.3	0.3	20.6µM*	u
CC1(C)OC(=O)C2(Cc3ccc(Br)cc3N3CCCCC32)C(=O)O1 (configuration not stated)	x	46.9	x	x	x
Cc1cc(C(=O)CSc2cccc[n+]2[O-])c(C)n1-c1ccccc1	-2.7%	-29.7	-37.5*	-6.7%	-0.8%
Cc1cc(C(=O)CSc2cccc[n+]2[O-])c(C)n1-c1ccc(Br)cc1	0.1%	x	x	x	x
COc1ccc(-c2nc3ccc(N4CCCC4)cc3c(=O)[nH]2)cc1OC	-2.3%	-10.2	-79.2*	-27.3%	u
O=C(Nc1cccc(-c2nc3ccccc3o2)c1)c1cc([N+](=O)[O-])ccc1N1CCOCC1	x	-3.0	x	x	x
CCCn1nc(C(=O)NNC(=O)CCCOc2ccc(OC)cc2)c2ccccc2c1=O	0.3%	-4.5	-76.4*	4.0%	1.7%
CN1C(=O)Cc2cc(S(=O)(=O)N3CCN(c4ccc(Cl)cc4)CC3)ccc21	2.1%	1.9	0.1	-0.1%	-0.4%
Cc1ccc(Cl)cc1N1CCN(S(=O)(=O)c2ccc3c(c2)CC(=O)N3C)CC1	-2.5%	-10.2	-54.2*	7.3%	-0.6%
O=C(c1ccc(Cl)c([N+](=O)[O-])c1)N1CCN(C(=O)c2ccco2)CC1	0.5%	20.1	-0.8	3.5%	2.0%
O=C(c1ccco1)N1CCN(c2c([N+](=O)[O-])nn(-c3cccc(Cl)c3)[n+]2[O-])CC1	3.1%	-86.6*	-1.8	2.1%	0.1%
O=C(NCCCN1CCOCC1)C(=O)NCC1OCCN1S(=O)(=O)c1ccc(Cl)cc1 (configuration not stated)	x	x	-33.5*	x	x
O=C(O)/C=C/c1ccc([N+](=O)[O-])o1	0.6%	-4.2	1.8	16.5%	16.2%
O=C1NC(=S)S/C1=C\C=C\c1ccc([N+](=O)[O-])o1	-0.3%	-85.8*	1.1	1.2%	-2.2%
CCCCNC(=O)CSc1nnc(C)c2c(C)n(-c3ccccc3)nc12	x	-12.2	x	x	x
Cc1cc(C)nc(NC(=O)Cc2ccc([N+](=O)[O-])cc2)c1	-0.1%	13.6	-33.8*	-9.7%	0.5%
Cc1ccc(CC(=O)Nc2cc([N+](=O)[O-])ccc2F)cc1	-1.2%	16.5	0.4	-9.8%	-0.5%
COc1cccc(Sc2nc(N(C)C)ncc2S(=O)(=O)c2ccc(Cl)cc2)c1	x	17.1	x	x	x

Record cards, from the list above.
O=C(Nc1ncccn1)c1ccc([N+](=O)[O-])o1 reads MmCpn inh: 0.3%; Giardia killer: -92.8*; CCT chaperon mod: 1.0; Rango release inh: -43.2%; Rango complex inh: u
O=C(Nc1ccccc1C(=O)NC1CC1)c1ccc([N+](=O)[O-])o1 reads MmCpn inh: -16.3%; Giardia killer: u; CCT chaperon mod: 1.8; Rango release inh: -7.2%; Rango complex inh: 0.3%

By substructure: the compounds so far containing fluorine
SMILES	MmCpn inh	Giardia killer	CCT chaperon mod	Rango release inh	Rango complex inh
Cn1nc(C(=O)OCc2ccc(F)cc2)c2ccccc2c1=O	0.2%	-10.7	-37.4*	-23.3%	5.1%
Cc1ccc(CC(=O)Nc2cc([N+](=O)[O-])ccc2F)cc1	-1.2%	16.5	0.4	-9.8%	-0.5%

Later entries:
SMILES	MmCpn inh	Giardia killer	CCT chaperon mod	Rango release inh	Rango complex inh
NC(=O)CSc1nnc(NC(=O)c2ccc(S(=O)(=O)N3CCOCC3)cc2)s1	0.6%	0.4	-58.1*	-0.1%	-2.0%
CSc1nnc(NC(=O)c2ccc(S(=O)(=O)N3CCOCC3)cc2)s1	-1.9%	-11.4	-1.1	8.4%	1.7%
CC(=O)N(c1ccc(Cl)cc1)C1SC(=O)N(c2ccccc2)C1=O (configuration not stated)	x	-7.6	x	x	x
NC(=O)c1ccc(NC(=O)CN2C(=O)NC3(CCCCCCC3)C2=O)cc1	-0.2%	2.6	-0.5	-12.7%	2.06µM*
O=C(O)CSC1=NS(=O)(=O)c2ccccc21	x	51.6	x	x	x
Cc1cnc([N+](=O)[O-])n1CCOC(=O)NC(=O)c1ccc(C(F)(F)F)cc1	-0.5%	-90.8*	-4.8	9.1%	2.5%
Cc1cnc([N+](=O)[O-])n1CCOC(=O)NC(=O)c1cccc(F)c1	1.7%	u	-0.6	-20.6%	-1.8%
Cc1c(/C=C2\SC(=O)N(CC(=O)Nc3ccc4c(c3)OCO4)C2=O)c2ccccc2n1C	-0.3%	-3.2	0.9	25.9µM*[inhibitor]	u
CCn1cc(/C=C2\SC(=O)N(CC(=O)Nc3ccc4c(c3)OCO4)C2=O)c2ccccc21	0.7%	2.4	-0.1	1.9%	-0.7%
COc1ccccc1N1C(=O)S/C(=C\c2cc(C)n(C)c2C)C1=O	-2.9%	2.0	-0.2	18.4µM*	u
Cc1cccc(NC(=O)CN2C(=O)S/C(=C\c3cc(C)n(C)c3C)C2=O)c1	-8.2%	-21.3	-3.4	23.1µM*	u
COc1ccc(CCn2c3c(c(=O)[nH]c2=S)CN(CC(C)C)CN3)cc1OC	x	10.8	x	x	x
COc1ccc(-c2cc3nc(C)n(N)c(=O)c3s2)cc1	-11.3%	u	-0.8	-4.8%	-3.2%
Cn1c(OCC2CCCO2)nc2cc(-c3ccccc3)sc2c1=O (configuration not stated)	x	x	-47.9*	x	x
Cc1nc2cc(-c3ccccc3)sc2c(=O)n1N	2.2%	u	-30.5*	11.0%	-0.2%
Cc1cc2c(c(C)c1Cl)C(c1ccc3c(c1)OCO3)CC(O)(c1ccccc1)O2 (configuration not stated)	x	2.6	x	x	x
NCCCN(Cc1ccccc1)c1ccc(Br)cn1	x	-28.7	x	x	x
CCOc1ccc(C(=O)OCc2nnc(-c3cccs3)o2)cc1OC	-2.2%	2.3	-72.2*	9.5%	1.2%
Cc1cnc2c3c(cc(Cl)c2c1)-c1ccccc1S(=O)(=O)N3	x	-0.8	x	x	x
COC(=O)N/N=C/c1ccc([N+](=O)[O-])s1	1.8%	u	-3.8	-13.5%	0.6%
Cc1ccc(NC(C)C(=O)N/N=C/c2ccc([N+](=O)[O-])s2)cc1 (configuration not stated)	1.0%	-83.7*	-0.4	-0.8%	-1.2%
COc1ccc(NC(C)C(=O)N/N=C/c2ccc([N+](=O)[O-])s2)cc1 (configuration not stated)	2.5%	-89.0*	-2.9	1.9%	-0.6%
Cc1ccc2c(c1)C1(C=CC(=O)C=C1)CC(=O)N2C	x	-8.4	x	x	x
CC1C(=O)N(S(=O)(=O)c2ccc([N+](=O)[O-])cc2)[C@H]1c1ccc2ccccc2c1 (some centres not stated)	x	-14.0	x	x	x
CCOC(=O)COn1c(=O)c(-c2ccc(C)cc2)[n+]([O-])c2ccccc21	0.3%	-12.0	1.1	-9.2%	-1.9%
CCOC(=O)COn1c(=O)c(-c2ccco2)[n+]([O-])c2ccccc21	-3.4%	-14.6	0.2	18.4µM*	u

Single entries from above:
Giardia killer result of `O=C(O)CSC1=NS(=O)(=O)c2ccccc21` is entered as 51.6
MmCpn inh result of `Cc1cnc([N+](=O)[O-])n1CCOC(=O)NC(=O)c1cccc(F)c1` is entered as 1.7%

Records listed above that bear a hit mark in Rango complex inh.
SMILES | MmCpn inh | CCT chaperon mod | Rango release inh | Rango complex inh
NC(=O)c1ccc(NC(=O)CN2C(=O)NC3(CCCCCCC3)C2=O)cc1 | -0.2% | -0.5 | -12.7% | 2.06µM*

Assay outcomes deposited in PubChem by National Center for Advancing Translational Sciences (NCATS).
